Measurements taken from ChEMBL document CHEMBL1139362, “Discovery of human macrophage migration inhibitory factor (MIF)-CD74 antagonists via virtual screening” (J Med Chem, 2009).

Target: T1, Macrophage migration inhibitory factor (Homo sapiens, UniProt P14174)
T1 sequence (P14174 whole entry): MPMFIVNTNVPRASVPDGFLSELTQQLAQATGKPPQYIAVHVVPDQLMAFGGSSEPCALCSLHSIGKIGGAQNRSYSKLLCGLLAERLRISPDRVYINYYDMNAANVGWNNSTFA
Assay: Inhibition of human recombinant MIF tautomerase

Ki: 1.6 µM
Structure (SMILES): O=C(COC(=O)c1cc2ccc(O)cc2oc1=O)c1ccccc1
